What all share (assay type): cell-based
One assay deals with Glu95^2.65Ala D2R (Homo sapiens, UniProt P14416, E95A). The assay can be described thus: ERK1/2 phosphorylation assay at mutant D2R.
Another assay concerns the target Val91^2.61Ala D2R (Homo sapiens, UniProt P14416, V91A). As to the kind of experiment: ERK1/2 phosphorylation assay at mutant D2R.
A further assay deals with D2LR (Homo sapiens, UniProt P14416). The assay can be described thus: ERK1/2 phosphorylation assay, interaction with dopamine. The conditions noted are these: Table 5, Wild Type.

Amino acid sequences for entries named in this document (tags omitted).
UniProt P14416, whole entry E95A: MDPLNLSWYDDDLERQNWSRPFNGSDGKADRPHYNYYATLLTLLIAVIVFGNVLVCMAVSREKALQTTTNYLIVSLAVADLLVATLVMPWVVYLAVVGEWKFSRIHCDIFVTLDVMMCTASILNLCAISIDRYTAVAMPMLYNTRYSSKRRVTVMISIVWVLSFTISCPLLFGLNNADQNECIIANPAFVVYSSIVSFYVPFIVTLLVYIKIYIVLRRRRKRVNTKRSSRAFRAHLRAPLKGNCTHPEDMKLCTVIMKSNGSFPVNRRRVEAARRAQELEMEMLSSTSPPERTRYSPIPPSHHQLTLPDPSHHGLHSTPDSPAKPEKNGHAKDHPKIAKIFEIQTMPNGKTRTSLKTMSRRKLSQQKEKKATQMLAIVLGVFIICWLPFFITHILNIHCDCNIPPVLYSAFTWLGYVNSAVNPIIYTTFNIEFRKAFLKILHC
UniProt P14416, whole entry V91A: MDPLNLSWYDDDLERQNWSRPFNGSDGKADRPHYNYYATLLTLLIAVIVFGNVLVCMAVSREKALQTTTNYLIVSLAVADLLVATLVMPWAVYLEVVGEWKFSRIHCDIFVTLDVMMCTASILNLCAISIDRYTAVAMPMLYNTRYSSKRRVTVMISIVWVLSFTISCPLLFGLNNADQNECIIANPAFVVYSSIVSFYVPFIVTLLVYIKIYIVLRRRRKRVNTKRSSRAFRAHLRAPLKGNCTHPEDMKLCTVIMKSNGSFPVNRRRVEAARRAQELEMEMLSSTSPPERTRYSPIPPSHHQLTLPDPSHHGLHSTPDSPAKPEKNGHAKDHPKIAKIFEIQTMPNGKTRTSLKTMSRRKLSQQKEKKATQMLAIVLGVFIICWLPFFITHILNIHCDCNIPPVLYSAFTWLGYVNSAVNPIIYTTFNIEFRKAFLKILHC
UniProt P14416, whole entry: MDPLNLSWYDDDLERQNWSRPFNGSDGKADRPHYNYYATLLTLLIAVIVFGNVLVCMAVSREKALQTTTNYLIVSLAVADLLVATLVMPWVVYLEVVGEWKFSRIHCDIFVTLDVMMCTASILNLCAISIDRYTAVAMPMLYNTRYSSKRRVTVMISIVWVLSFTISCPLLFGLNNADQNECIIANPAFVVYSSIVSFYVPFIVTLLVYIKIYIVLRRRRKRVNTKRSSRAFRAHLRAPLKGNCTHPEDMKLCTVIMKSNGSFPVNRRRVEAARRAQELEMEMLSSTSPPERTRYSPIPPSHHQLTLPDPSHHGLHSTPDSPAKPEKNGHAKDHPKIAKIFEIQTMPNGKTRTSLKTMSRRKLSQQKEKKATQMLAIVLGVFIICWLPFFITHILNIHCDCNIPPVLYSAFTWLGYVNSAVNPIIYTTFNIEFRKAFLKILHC

Molecules are shown by their SMILES.

Consider `CCCCNC(=O)c1cc2ccccc2[nH]1` [Compound 11d, N-Butyl-1H-indole-2-carboxamide], for which the Kb at Glu95^2.65Ala D2R was 5.01 µM; at Val91^2.61Ala D2R it was 85.1 µM; at D2LR (KB) it was 6 µM; at D2LR (pKB), 6.17 µM.

Values taken from PMC10823399 (Journal of medicinal chemistry, 2015).
